Target: T1, D-AAO (Sus scrofa, UniProt P00371)
T1 construct: purchased Sigma A-5222; host or cells: swine kidney
Assay: D-AAO microplate test for detection of D-amino acids
Type: biochemical, swine
Conditions: 0.05 mM, raw OD
From the text: The D-AAO/HRP test described here above can also be used for this purpose with slight modifications. For that purpose, the racemase reaction step should be skipped and the microplate test should start straightforward at the II-1-2.1-2 step described above with the following remarks:
1) Standard: It should not be an equimolar mixture of D- and L-amino acid, but rather a serial dilution of D-Amino acids. The choice of amino acid is made according to the interest of the D-amino acid under investigation. The final volume in wells should be of 87 μl.
2) Negative control: It is made with the L-enantiomer of the D-amino acid under investigation. The final volume should be 87 μl.
3) Blank: It is made with 87 μl buffer*. (See paragraph II.1.1 Materials.)
4) Samples: The samples to be tested should be adjusted to pH 8.3 with buffer* and their final volumes should be of 87 μl per well.
5) Then, the procedure follows steps 3) to 6), as above.
Different L- and D-amino acids were tested, namely Tyrosine (Tyr), Valine (Val), Threonine (Thr), Glutamic acid (Glu), Lysine (Lys) and Tryptophan (Try).

By UniProt entry, the sequences of proteins in these tests, tags left out. Where a name states a change or a piece, a line headed by the entry shows the natural chain unless it says otherwise.
UniProt P00371: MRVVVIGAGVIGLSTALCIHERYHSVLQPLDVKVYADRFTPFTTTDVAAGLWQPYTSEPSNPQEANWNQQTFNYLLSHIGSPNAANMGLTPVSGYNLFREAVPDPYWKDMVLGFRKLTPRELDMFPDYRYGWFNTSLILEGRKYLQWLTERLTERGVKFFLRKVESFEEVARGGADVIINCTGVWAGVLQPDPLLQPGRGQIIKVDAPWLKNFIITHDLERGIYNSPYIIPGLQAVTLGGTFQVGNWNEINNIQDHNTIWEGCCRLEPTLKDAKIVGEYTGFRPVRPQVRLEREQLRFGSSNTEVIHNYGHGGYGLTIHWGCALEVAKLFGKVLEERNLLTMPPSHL

- Optical density at 490 nm after D-AAO reaction: 0.159
Compound: O=C(O)[C@H]1CCCN1 [D-pro, D-Proline]

Source: US20120058135A1, “Identification and characterization of racemases, definition of protein signatures, and a test for detecting D-amino acid and for screening molecules capable of inhibiting the activity of racemase, especially proline racemase” (Institut Pasteur, priority 2010, published 2012)
